Assay results: PMC6679956 (Journal of medicinal chemistry, 2019)

Protein sequences, listed by entry. Tags and fused reporters are not part of them.
UniProt P06730, whole entry: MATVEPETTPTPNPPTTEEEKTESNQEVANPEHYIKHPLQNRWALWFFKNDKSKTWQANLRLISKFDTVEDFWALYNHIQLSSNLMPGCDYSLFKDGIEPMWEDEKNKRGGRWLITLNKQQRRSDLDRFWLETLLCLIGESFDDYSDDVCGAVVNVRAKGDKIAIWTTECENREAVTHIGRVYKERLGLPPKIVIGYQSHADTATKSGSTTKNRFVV

Legend:
m^7GDP-bound eIF4E = m^7GDP-bound eIF4E (Homo sapiens, UniProt P06730); assay: SPR binding kinetics of peptides to immobilized eIF4E
[1] = target: 10× His-eIF4E (human eukaryotic translation initiation factor 4E) (human, UniProt P06730 1-217); assay: SPR

| fold enhancement in kd of stapled versus linear peptide (m^7GDP-bound eIF4E; SPR, 25 °C) | fold reduction in ka of stapled versus linear peptide (m^7GDP-bound eIF4E; SPR, 25 °C) | kon (m^7GDP-bound eIF4E; pH 7.5, read-out: association rate ka) | koff (m^7GDP-bound eIF4E; pH 7.5, read-out: dissociation rate kd) | Kd [1] | Molecule |
| --- | --- | --- | --- | --- | --- |
| > 20 fold | 2.4 fold | 830000 ± 50000 M⁻¹ s⁻¹ | 0.0052 ± 0.0001 s⁻¹ | – | CC(=O)N[C@@H](CCCCN)C(=O)N[C@@H](CCCCN)C(=O)N[C@@H](CCCNC(=N)N)C(=O)N[C@@H](Cc1ccc(O)cc1)C(=O)N[C@@H](CO)C(=O)N[C@@H](CCCNC(=N)N)C(=O)N[C@@]1(C)CCCC=CCCC[C@@](C)(C(=O)N[C@@H](CC(C)C)C(N)=O)NC(=O)[C@H](CC(C)C)NC(=O)[C@H](CC(C)C)NC(=O)[C@H](CCC(N)=O)NC1=O [sTIP-04, reference compound] |
| – | – | – | – | 29 ± 6 nM | KKRYDREFLLGFQF (N-terminal acetyl cap; C-terminal amide) [linear eIF4G peptide (KKRYDREFLLGFQF, eIF4GI)] |
